{"source": "paper PMC3823235", "about": "(Biochemistry, 2013)", "origin": "cited, not measured here", "target": "T1, recombinant hGAR Tfase (Homo sapiens, UniProt P22102)", "T1 sequence (P22102 808-1010)": "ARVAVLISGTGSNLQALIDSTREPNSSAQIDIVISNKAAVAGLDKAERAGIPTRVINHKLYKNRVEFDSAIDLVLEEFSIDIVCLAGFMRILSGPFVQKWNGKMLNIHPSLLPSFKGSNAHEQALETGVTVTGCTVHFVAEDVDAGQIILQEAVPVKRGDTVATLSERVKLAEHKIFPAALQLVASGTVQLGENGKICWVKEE", "details": "read-out: Ki, hGAR Tfase; diastereomer mixture; cited from earlier work", "data": [{"substance": "10R/S-methylthio-DDACTHF [compound 6]", "values": [{"measurement": "Ki", "value": 250, "unit": "nM"}]}]}
